Experimental data taken from US11472769B2, “SSAO inhibitors and use thereof” (Eccogene (Shanghai) Co., Ltd., priority 2019, dated 2022).
Read-outs that look alike come from different tables or passages of the source.

Chains of the proteins cited; added tags and fusions are not shown.
UniProt P21397, whole entry: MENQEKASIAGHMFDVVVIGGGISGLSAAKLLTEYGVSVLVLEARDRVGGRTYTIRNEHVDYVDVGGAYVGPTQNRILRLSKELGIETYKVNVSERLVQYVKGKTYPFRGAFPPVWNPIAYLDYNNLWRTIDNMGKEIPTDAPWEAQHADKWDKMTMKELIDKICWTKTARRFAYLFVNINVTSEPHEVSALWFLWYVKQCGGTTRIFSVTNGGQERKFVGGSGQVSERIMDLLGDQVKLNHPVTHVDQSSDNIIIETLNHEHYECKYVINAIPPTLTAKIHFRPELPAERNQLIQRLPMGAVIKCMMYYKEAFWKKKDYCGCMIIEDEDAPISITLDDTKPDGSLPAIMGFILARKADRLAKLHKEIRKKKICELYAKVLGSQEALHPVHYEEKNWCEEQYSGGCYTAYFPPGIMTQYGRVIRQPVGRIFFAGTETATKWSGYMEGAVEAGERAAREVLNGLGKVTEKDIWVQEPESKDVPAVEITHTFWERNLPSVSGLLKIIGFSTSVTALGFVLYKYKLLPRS
UniProt P27338, whole entry: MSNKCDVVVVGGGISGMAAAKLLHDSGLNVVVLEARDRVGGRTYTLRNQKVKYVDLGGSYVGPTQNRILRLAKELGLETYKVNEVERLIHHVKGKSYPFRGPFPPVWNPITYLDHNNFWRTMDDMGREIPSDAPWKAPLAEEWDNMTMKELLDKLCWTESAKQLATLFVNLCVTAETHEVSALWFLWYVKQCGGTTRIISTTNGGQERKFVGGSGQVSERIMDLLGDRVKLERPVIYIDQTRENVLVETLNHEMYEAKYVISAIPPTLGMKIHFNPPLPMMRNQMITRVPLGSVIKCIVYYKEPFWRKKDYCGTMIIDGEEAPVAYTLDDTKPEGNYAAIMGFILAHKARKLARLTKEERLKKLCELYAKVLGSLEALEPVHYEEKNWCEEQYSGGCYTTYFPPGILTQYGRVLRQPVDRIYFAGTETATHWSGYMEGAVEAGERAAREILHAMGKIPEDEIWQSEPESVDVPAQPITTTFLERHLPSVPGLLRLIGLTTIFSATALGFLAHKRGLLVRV
UniProt Q16853, whole entry: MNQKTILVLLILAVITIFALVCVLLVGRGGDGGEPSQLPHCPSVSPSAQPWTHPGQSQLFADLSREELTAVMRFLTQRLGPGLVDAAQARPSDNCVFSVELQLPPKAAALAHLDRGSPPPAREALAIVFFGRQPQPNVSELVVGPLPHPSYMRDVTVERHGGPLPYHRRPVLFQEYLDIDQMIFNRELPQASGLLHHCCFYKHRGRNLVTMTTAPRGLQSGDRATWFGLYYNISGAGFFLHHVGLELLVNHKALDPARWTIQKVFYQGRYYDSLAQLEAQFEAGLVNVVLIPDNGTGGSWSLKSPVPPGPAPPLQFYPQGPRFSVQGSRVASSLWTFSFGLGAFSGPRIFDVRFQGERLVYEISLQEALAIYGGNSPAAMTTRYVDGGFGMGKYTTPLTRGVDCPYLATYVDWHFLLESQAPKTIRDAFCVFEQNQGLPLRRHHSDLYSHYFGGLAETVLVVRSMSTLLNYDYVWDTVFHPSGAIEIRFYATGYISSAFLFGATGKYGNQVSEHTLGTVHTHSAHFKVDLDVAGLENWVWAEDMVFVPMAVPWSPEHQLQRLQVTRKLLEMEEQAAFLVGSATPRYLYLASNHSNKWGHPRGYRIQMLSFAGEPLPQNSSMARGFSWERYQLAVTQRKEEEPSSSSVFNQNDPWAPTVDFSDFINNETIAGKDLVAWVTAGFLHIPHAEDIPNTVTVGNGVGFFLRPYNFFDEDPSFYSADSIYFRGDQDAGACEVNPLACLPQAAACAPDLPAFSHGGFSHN

Tests used:
Format in all cases: biochemical
recombinant hMAO-A = recombinant hMAO-A (Homo sapiens (Human), UniProt P21397); assay: MAO-A activity assay (MAO-Glo assay kit); details: read-out: MAO-A Activity (IC50), 40 μM substrate, 30 mins pre-incubation, tested form: HCl
recombinant hMAO-B = recombinant hMAO-B (Homo sapiens (Human), UniProt P27338); assay: MAO-B activity assay (MAO-Glo assay kit)
recombinant hSSAO = recombinant hSSAO (Homo sapiens (Human), UniProt Q16853); assay: SSAO Activity Assay (MAO-Glo assay kit)
[1] = read-out: MAO-B Activity (IC50), 4 μM substrate, 30 mins pre-incubation, tested form: HCl
[2] = read-out: SSAO Activity (IC50), 40 μM substrate, 30 mins pre-incubation, tested form: HCl
[3] = read-out: SSAO Activity (IC50), 40 μM substrate, 30 mins pre-incubation

SMILES	IC50 (recombinant hMAO-A)	IC50 (recombinant hMAO-B; [1])	IC50 (recombinant hSSAO; [2])	IC50 (recombinant hSSAO; [3])	IC50 (recombinant hMAO-B; read-out: MAO-B Activity (IC50), 4 μM substrate, 30 mins pre-incubation)
CC(CN1CCCC1=O)CS(=O)(=O)c1ccc(OC/C(=C/F)CN)cc1 (single isomer, unassigned)	> 30 µM	> 30 µM			
CC(CN1CCC2(CCCC2)C1=O)CS(=O)(=O)c1ccc(OC/C(=C/F)CN)cc1 (single isomer, unassigned)	> 30 µM	< 10 µM	0.02 to 0.1 µM		
CC(C)N1CCC2(CCC(CS(=O)(=O)c3ccc(OC/C(=C/F)CN)cc3)CC2)C1=O (single isomer, unassigned)	> 30 µM	> 30 µM	0.02 to 0.1 µM		

Further lines, results first:

IC50 (recombinant hMAO-A)	IC50 (recombinant hMAO-B; [1])	IC50 (recombinant hSSAO; [2])	IC50 (recombinant hSSAO; [3])	IC50 (recombinant hMAO-B; read-out: MAO-B Activity (IC50), 4 μM substrate, 30 mins pre-incubation)	SMILES
			0.02 to 0.1 µM		NCC(=CF)COc1ccc(S(=O)(=O)CC2CCOC2)cc1 (single isomer, unassigned)
			0.02 to 0.1 µM	10 to 30 µM	CC1(C)COC(CS(=O)(=O)c2ccc(OC/C(=C/F)CN)cc2)CO1 (single isomer, unassigned)
